Results on 1 substance are retold here after patent US20100190187A1, “Screening Assays for Antagonists and Analyses of Cardiac Hypertrophy” (The Regents of the University of Michigan Office of …, priority 2006, published 2010).

This test concerns the target T1, mVDR (Rattus norvegicus, UniProt P13053).
T1 sequence (P13053 1-423): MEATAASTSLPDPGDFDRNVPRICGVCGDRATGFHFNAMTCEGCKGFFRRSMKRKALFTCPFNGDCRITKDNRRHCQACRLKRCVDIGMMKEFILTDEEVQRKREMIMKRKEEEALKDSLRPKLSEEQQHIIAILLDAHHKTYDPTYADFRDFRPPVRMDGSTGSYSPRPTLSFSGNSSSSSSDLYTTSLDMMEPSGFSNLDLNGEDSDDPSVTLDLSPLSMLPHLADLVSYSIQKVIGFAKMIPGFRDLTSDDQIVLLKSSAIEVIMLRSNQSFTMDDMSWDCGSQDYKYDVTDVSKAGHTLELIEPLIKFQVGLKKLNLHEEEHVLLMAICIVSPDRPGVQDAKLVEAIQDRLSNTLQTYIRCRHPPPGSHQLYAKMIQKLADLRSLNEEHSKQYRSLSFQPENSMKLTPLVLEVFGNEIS
Kind of test: Saturation binding of [3H] 1α,25(OH)2 vitamin D3 to plasma membrane fractions from rat whole heart homogenates. Particulars: plasma membrane fractions (7,700-40,000×g) from rat whole heart homogenates.

A word on the Kd: it is the concentration at which binding is half-saturated. Take [^3H] 1α,25(OH)2 vitamin D3: the “Bmax of specific binding to mVDR (Scatchard transformation)” value is given as 186 fmol/mg. Also, the Kd (read-out: Kd of specific binding to mVDR (Scatchard transformation)) stood at 0.696 nM.
